Measurements reported in US20180208920A1, “MOLECULAR MACHINES” (Commonwealth Scientific and Industrial Research Organisation, priority 2015, published 2018).

How the values were obtained:
[1] = tested on: EcG3PD::CaNOX::AaE2 (TriF2); settings: after 5 min incubation with inhibitor on ice
CaNOX::AaE2 = settings: after 5 min incubation with inhibitor on ice

SMILES: O=C(CBr)C(F)(F)F
- residual esterase activity [1]: greatly decreased
- residual esterase activity (CaNOX::AaE2): greatly decreased
